Laboratory results taken from US20190352268A1, “CANNABINOID RECEPTOR MEDIATING COMPOUNDS” (The USA, as represented by the Secretary, Department of …, priority 2015, published 2019).

Test: Tissue levels (brain and plasma) after administration to mice
Conditions: mouse, in vivo, 10 mg/kg

Structure (SMILES): C/C(N)=N\C(=N/S(=O)(=O)c1ccc(Cl)cc1)N1CC(c2ccccc2)C(c2ccc(Cl)cc2)=N1 (racemic) [Compound 2, rac-N-(1-aminoethylidene)-3-(4-chlorophenyl)-N-((4-chlorophenyl)sulfonyl)-4-phenyl-4,5-dihydro-1H-pyrazole-1-carboximidamide]
- Kp at 1 h: 0.03
